Here are results for 2 molecules from ChEMBL document CHEMBL3259625 (ACS Med Chem Lett, 2014).

The chains behind the UniProt entries cited, without tags or fusion partners.
UniProt P05177, whole entry: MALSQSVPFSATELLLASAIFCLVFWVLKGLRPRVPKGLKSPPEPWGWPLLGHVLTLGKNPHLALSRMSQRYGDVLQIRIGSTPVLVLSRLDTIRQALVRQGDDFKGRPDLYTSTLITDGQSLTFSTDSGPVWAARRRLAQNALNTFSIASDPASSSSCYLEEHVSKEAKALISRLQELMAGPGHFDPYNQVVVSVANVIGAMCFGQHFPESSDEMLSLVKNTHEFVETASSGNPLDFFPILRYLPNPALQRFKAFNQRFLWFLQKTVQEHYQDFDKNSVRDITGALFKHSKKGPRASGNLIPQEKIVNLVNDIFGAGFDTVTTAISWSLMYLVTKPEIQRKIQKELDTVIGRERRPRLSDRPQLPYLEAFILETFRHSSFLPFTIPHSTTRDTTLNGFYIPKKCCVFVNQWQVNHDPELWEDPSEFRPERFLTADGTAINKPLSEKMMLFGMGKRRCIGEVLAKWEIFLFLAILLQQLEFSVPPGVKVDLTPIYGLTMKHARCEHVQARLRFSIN
UniProt P11712, whole entry: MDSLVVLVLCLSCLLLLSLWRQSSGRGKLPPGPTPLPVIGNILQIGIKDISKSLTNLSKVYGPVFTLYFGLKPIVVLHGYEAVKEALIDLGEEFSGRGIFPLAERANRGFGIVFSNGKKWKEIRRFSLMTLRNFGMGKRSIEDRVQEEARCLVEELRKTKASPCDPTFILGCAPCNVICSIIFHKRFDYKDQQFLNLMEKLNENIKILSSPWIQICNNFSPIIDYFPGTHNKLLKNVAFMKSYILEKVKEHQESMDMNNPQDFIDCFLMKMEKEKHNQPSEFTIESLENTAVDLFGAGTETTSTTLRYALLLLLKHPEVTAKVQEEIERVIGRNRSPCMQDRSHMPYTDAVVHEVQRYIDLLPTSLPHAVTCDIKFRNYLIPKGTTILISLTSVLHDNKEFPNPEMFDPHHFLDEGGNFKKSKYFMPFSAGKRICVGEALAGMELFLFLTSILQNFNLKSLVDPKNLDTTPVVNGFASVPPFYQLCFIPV
UniProt P10635, whole entry: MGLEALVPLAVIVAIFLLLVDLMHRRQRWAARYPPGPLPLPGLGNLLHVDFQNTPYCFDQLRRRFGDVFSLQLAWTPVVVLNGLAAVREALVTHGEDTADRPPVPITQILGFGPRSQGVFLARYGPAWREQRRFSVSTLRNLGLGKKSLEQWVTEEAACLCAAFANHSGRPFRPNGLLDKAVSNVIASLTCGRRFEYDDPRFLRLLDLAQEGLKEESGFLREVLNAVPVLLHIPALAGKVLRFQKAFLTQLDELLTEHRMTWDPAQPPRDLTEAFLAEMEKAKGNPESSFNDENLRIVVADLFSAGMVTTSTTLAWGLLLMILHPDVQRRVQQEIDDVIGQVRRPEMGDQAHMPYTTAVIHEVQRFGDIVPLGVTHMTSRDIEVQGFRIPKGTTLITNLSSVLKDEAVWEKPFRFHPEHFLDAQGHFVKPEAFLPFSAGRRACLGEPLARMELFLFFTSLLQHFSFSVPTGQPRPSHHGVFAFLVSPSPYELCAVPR
UniProt P08684, whole entry: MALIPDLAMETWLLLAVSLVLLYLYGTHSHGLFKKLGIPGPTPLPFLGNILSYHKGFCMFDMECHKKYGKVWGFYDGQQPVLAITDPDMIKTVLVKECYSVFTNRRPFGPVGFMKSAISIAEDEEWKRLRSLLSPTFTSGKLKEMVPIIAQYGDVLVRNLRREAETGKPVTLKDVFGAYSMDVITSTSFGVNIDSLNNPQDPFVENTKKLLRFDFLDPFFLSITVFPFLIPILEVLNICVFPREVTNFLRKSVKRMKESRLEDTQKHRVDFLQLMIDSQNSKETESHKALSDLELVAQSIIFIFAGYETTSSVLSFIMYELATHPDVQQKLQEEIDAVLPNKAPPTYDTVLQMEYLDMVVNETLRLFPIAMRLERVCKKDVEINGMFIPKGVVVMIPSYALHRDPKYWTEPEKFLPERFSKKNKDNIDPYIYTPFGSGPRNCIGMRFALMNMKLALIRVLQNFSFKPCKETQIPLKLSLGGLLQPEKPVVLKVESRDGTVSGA

Holding throughout (format): ADME
For one series, the target named is Cytochrome P450 1A2 (Homo sapiens, UniProt P05177). Description: Inhibition of CYP1A2 in human liver microsomes assessed as phenacetin […] to acetaminophen at 1 uM after 10 mins in presence of NADPH. (Liver microsomes are a subcellular fraction often used to study metabolism.)
For the next series, the target named is Cytochrome P450 2C9 (Homo sapiens, UniProt P11712). Description: Inhibition of CYP2C9 in human liver microsomes assessed as tolbutamide hydroxylation to hydroxytolbutamide at 1 uM after 10 mins in presence of NADPH.
The target of the next series is Cytochrome P450 2D6 (Homo sapiens, UniProt P10635). Put plainly: Inhibition of CYP2D6 in human liver microsomes assessed as bufuralol hydroxylation to 4'-hydroxybufuralol at 1 uM after 10 mins in presence of NADPH.
A further series deals with Cytochrome P450 3A4 (Homo sapiens, UniProt P08684). Put plainly: Inhibition of CYP3A4 in human liver microsomes assessed as midazolam hydroxylation to 1'-hydroxymidazolam at 1 uM after 10 mins in presence of NADPH.

Regarding `O=C(N[C@H](Cc1c[nH]c2ccccc12)C(=O)Nc1ccncc1)c1ccc(-c2cccc(F)c2)cc1F`, the “inhibition (INH)” value turned out to be 14% at Cytochrome P450 1A2, 91% at Cytochrome P450 2C9, 30% at Cytochrome P450 2D6 and 60% on Cytochrome P450 3A4.
Turning to `O=C(N[C@H](Cc1c[nH]c2ccccc12)C(=O)Nc1ccncc1)c1ccc(-c2ccc(F)c(F)c2)cc1F`, the “inhibition (INH)” value at Cytochrome P450 1A2 was -21%; on Cytochrome P450 2C9 it was 90%; on Cytochrome P450 2D6, 48%; on Cytochrome P450 3A4, 48%.
